{
  "sequences": {"note": "Chains of the proteins cited; added tags and fusions are not shown. Residues count along the entry.", "UniProt P03951, 19-387 limits assumed": "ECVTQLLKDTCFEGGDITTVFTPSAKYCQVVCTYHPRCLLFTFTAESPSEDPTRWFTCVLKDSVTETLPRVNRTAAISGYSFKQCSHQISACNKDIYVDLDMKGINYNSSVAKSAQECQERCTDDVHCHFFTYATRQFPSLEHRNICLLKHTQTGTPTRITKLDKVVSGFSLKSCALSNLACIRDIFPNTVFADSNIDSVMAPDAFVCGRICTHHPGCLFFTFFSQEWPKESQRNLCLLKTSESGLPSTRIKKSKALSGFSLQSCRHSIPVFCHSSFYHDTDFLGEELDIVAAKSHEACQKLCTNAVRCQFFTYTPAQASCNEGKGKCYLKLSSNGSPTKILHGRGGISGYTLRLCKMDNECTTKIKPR", "UniProt P03951, 388-625 limits assumed": "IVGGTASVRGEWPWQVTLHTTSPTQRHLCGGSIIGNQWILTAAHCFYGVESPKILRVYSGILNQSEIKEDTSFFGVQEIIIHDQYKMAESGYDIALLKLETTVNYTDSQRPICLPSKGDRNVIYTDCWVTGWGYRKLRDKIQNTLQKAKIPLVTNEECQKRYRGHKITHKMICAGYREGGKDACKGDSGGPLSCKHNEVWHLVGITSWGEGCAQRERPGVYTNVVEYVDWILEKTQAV"},
  "source": "PubChem BioAssay AID798",
  "about": "(PCMD, 2007)",
  "note": "The entries are a selection whose mix differs from that of the whole data set. Calls of active or inactive are those of the source.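 Rule for the calls: active = inhibition of at least 40%; inactive = inhibition below 40%.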",
  "data": [
    {"target": "Coagulation factor XI (Homo sapiens) (UniProt P03951)", "experiment": "factor XIa enzyme inhibition, large library – biochemical, 1536-well, primary screen (AID 798);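 note: fluorescence of freed AMC excited at 355 nm; 0% = enzyme without compound and 100% = no enzyme blank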", "settings": "purified FXIa, Boc-Glu-Ala-Arg-AMC fluorogenic substrate; at 5 µM; active compounds read high", "values": [
      {"smiles": "O=C(NCC1(N2CCCCC2)CCCCC1)c1cccc([N+](=O)[O-])c1", "inhibition": "inactive: -2.47%"},
      {"smiles": "N#CC1(Nc2ccccc2)CCN(CCc2ccccc2)CC1", "inhibition": "inactive: 3.87%"},
      {"smiles": "COc1ccc(NC2CCN(C(=O)OC(C)(C)C)CC2)cc1", "inhibition": "inactive: 1.98%"},
      {"smiles": "CN1CCN(CCOC(=O)C(O)(c2ccccc2)c2ccccc2)CC1", "inhibition": "inactive: 7.61%"},
      {"smiles": "O=C(NCC1(N2CCOCC2)CCCCC1)c1cc(=O)[nH]c2ccccc12", "inhibition": "inactive: 0.3%"},
      {"smiles": "COc1ccc(CN(CCCl)CCCl)cc1Cl", "inhibition": "inactive: -3.41%"},
      {"smiles": "CN(C)c1cccc(C(=O)NCC2(N3CCCCC3)CCCCC2)c1", "inhibition": "inactive: 1.53%"},
      {"smiles": "CC(C)c1ccc(NC2CCN(C(=O)OC(C)(C)C)CC2)cc1", "inhibition": "inactive: -1.44%"},
      {"smiles": "COc1ccc(C(=O)NCC2(N3CCCCC3)CCCCC2)c(OC)c1OC", "inhibition": "inactive: -6.44%"},
      {"smiles": "O=C(NCC1(N2CCOCC2)CCCCC1)c1cc2ccccc2o1", "inhibition": "inactive: 17.4%"},
      {"smiles": "CCOC(=O)N1CCC(Nc2ccc(OC)cc2)CC1", "inhibition": "inactive: -5.54%"},
      {"smiles": "N#CC1(Nc2ccccc2)CCN(Cc2ccccc2)CC1", "inhibition": "inactive: 7.83%"},
      {"smiles": "O=C(OC1CN2CCC1CC2)C1c2ccccc2Oc2ccccc21", "note": "(centres undefined)", "inhibition": "inactive: -3.85%"},
      {"smiles": "CCOc1ccc(C)cc1CN(CCCl)CCCl", "inhibition": "inactive: 8.97%"},
      {"smiles": "COc1ccc(NC2CCN(CCc3ccccc3)CC2)c(OC)c1", "inhibition": "inactive: -3.07%"},
      {"smiles": "Cc1ccc(OCC(C)C)c(CN(CCCl)CCCl)c1", "inhibition": "inactive: 6.17%"},
      {"smiles": "Fc1ccccc1NC1CCN(Cc2ccccc2)CC1", "inhibition": "inactive: 10.8%"},
      {"smiles": "CCN1CCC(Nc2cccc(F)c2)CC1", "inhibition": "inactive: 3.65%"},
      {"smiles": "CN(C)c1ccc(C(=O)NCC2(N3CCCCC3)CCCCC2)cc1", "inhibition": "inactive: -1.69%"},
      {"smiles": "CCOc1ncccc1C(=O)NCC1(N2CCOCC2)CCCCC1", "inhibition": "inactive: 4.83%"},
      {"smiles": "CC(C)(C)OC(=O)N1CCC(Nc2ccccc2)CC1", "inhibition": "inactive: 18.1%"},
      {"smiles": "CCC(CO)(C(=O)OC1CN2CCC1CC2)c1ccccc1", "note": "(centres undefined)", "inhibition": "inactive: 4.73%"},
      {"smiles": "COc1cc(OC)cc(C(=O)NCC2(N3CCOCC3)CCCCC2)c1", "inhibition": "inactive: -5.64%"},
      {"smiles": "CCCOc1ccc(C)cc1CN(CCCl)CCCl", "inhibition": "inactive: 7.36%"},
      {"smiles": "COc1ccc(C(=O)NCC2(N3CCOCC3)CCCCC2)cc1OC", "inhibition": "inactive: 1.79%"},
      {"smiles": "N/C(=N\\O)c1c(N)no[n+]1[O-]", "inhibition": "inactive: -6.43%"},
      {"smiles": "O=C(OC1CN2CCC1CC2)C1c2ccccc2C=Cc2ccccc21", "note": "(centres undefined)", "inhibition": "inactive: -1.44%"},
      {"smiles": "N#Cc1ccc(C(=O)NCC2(N3CCCCC3)CCCCC2)cc1", "inhibition": "inactive: 1.29%"},
      {"smiles": "c1ccc(CN2CCC(Nc3ccccc3)CC2)cc1", "inhibition": "inactive: -4.48%"}
    ]}
  ]
}
